The source of these data is publication PMC6814797, “C-terminal–modified LY2510924: a versatile scaffold for targeting C-X-C chemokine receptor type 4” (Scientific Reports, 2019).

Protein sequences, listed by entry. Tags and fused reporters are not part of them.
UniProt P61073, whole entry: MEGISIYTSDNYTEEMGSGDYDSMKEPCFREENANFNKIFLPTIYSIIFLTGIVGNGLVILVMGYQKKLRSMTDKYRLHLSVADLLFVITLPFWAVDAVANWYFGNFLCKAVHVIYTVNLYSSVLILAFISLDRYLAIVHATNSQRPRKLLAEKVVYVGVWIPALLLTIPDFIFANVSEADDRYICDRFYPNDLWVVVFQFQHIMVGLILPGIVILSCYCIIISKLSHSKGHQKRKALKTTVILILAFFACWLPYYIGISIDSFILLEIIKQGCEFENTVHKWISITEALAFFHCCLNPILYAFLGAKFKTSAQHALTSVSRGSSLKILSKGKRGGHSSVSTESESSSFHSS

In this assay the target is T1, CXCR4 (Homo sapiens, UniProt P61073).
T1 construct: were determined with CCRF-CEM cells expressing endogenous CXCR4; endogenous in cells; host or cells: CCRF-CEM (human acute lymphoblastic leukemia) whole cells
The assay is described as follows: Competitive binding assay: displacement of 125I-SDF-1α from CXCR4-expressing CCRF-CEM cells. As to conditions: CCRF-CEM 0.5 × 10^6 cells, 125I-SDF-1α 1 kBq, 0.25 nM SDF-1α, one hour, room temperature per method (b54 says 37 °C); mean ± SD, n = 3. As for the experimental part:
CCRF-CEM cells and ^125I-SDF-1α were used for the competitive binding assay. The competitive binding assay was performed in a 96-well MultiScreen HTS FB plate (Merck) treated with 0.1% polyethyleneimine. RPMI-1640 containing 1% bovine serum albumin (BSA) and 0.05% Tween20 was used for the assay buffer. Briefly, 200-μL reaction mixtures containing CCRF-CEM (0.5 × 10^6 cells), ^125I-SDF-1α (1 kBq), SDF-1α (0.05 pmol; R&D Systems, Minneapolis, MN), and varying concentrations of CXCR4 antagonists were incubated at room temperature for one hour. After the incubation, the cells were washed three times with the assay buffer, and radioactivity counts of cells were determined with a gamma counter. The IC50 values were calculated by using GraphPad Prism version 5.04 (GraphPad Software, San Diego, CA).
Since the purpose of this study was to assess in vivo accumulation to CXCR4-expressing cells, the apparent binding affinities were determined at 37 °C. […] The half-maximal inhibitory concentration (IC50) values of FRM001, its Ga-, Lu-, and Y-complexes, and other CXCR4 antagonists were determined with CCRF-CEM cells expressing endogenous CXCR4[34]. The displacement of ^125I-SDF-1α bound to the CXCR4 with the compounds was also evaluated in the presence of 0.25 nM of SDF-1α.

Usually IC50 stands for the concentration that inhibits the measured activity by half. Low values mean greater potency, high ones weaker potency.

For `N=C(N)NCCC[C@@H]1NC(=O)[C@H](CCCNC(=N)N)NC(=O)[C@@H](Cc2ccc(O)cc2)NC(=O)CNC(=O)[C@H](Cc2ccc3ccccc3c2)NC1=O` [FC131, cyclo[D-Tyr-Arg-Arg-2-Nal-Gly], reference compound], the IC50 was 13.1 ± 1.1 nM.
